From article PMC7384330 (Neuropharmacology, 2018)

Biological target: T1, human Avpr1b vasopressin receptor (Homo sapiens, UniProt P47901)
T1 sequence (P47901 1-424): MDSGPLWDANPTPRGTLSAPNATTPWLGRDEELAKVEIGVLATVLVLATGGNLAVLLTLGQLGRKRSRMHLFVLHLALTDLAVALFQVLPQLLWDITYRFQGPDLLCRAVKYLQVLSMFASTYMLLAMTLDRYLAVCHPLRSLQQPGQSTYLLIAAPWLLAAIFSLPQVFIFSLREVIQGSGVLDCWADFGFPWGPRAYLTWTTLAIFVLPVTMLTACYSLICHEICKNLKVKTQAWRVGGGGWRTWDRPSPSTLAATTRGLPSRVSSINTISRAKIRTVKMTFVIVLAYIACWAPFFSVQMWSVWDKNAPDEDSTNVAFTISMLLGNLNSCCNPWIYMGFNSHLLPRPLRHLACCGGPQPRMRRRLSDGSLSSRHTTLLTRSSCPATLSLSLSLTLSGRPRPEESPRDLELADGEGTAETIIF
Experiment: Calcium mobilization assay, CHO-V1b
Type: cell-based
Settings: ratio of EC50, calcium mobilization

In the case of `Cc1cc(C(=O)N2Cc3cnn(C)c3Nc3ccccc32)ccc1CNC(=O)N1CCC[C@H]1C(=S)N1CCCN(C)CC1` [TC-OT-39, (2S)-N-[[4-[(4,10-Dihydro-1-methylpyrazolo[3,4-b][1,5]benzodiazepin-5(1H)-yl)carbonyl]-2-methylphenyl]methyl]-2-[(hexahydro-4-methyl-1H-1,4-diazepin-1-yl)thioxomethyl]-1-pyrrolidinecarboxamide], the “selectivity for human OXTR versus human Avpr1b” value is reported as 24 fold.
